miR-122 sensor – miR-122 inhibition in Huh7 cells. Huh7 miR-122 Renilla luciferase sensor, 48 h; neutral wells = 0, positive control = 100. activation (reporter increase), % at 12.5 µM. actives 0.3% (n = 340,000);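 active means mean replicate activation score at least 90 and every replicate individually at or above 90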;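 further: higher luciferase means less miR-122 activity so hits act as miR-122 inhibitors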
UUG fidelity – modulators of yeast start codon fidelity, primary screen, whole organism, S. cerevisiae, single point, plate reader | activity score, % at 18.7 µM | 350,000 tested, 0.13% active | S. cerevisiae UUG-firefly luciferase reporter, luminescence/redox ratio;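 active means replicate mean at a twofold rise or more, about +100% in these data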;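 further: firefly luciferase made from a UUG start codon reports start codon fidelity; reporter light over untreated wells divided by growth signal over untreated wells; some hits fall short of that in this replicate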
CFTR F508del cor – CFTR F508del correction in bronchial cells; actives 0.36% (n = 350,000); CFBE cells, YFP halide quenching; stimulated with forskolin plus potentiator P3; % fluorescence drop versus neutral controls; AID 720511; activity (quench increase), % at 7.58 µM;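 active means mean added fluorescence quench of at least 8% versus neutral control, with both replicates also reaching 8%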;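 further: cells transiently co-express mutant CFTR-F508del with the halide-sensitive YFP; corrector assay measuring rescue of mutant channel to the surface after 24 h compound exposure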
LGR2 inh – Drosophila LGR2 receptor signaling inhibition; HEK293 LGR2, CRE-luciferase, bursicon-stimulated, 4 h; inhibition, % at 9.99 µM; actives 0.35% (n = 380,000); AID 720647;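 active means drop in luminescence signal, shown as inhibition above about 50% in the replicate tests, limit read from the data, passing the limit was not always enough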;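 further: agonist challenge used bursicon conditioned medium at about half maximal strength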
PglD DTNB – blocks C. jejuni PglD acetyltransferase activity. purified PglD enzyme, DTNB colorimetric CoA detection. inhibition, % at 12.5 µM. actives 0.098% (n = 360,000). AID 602405; in the data active means inhibition above about 16%, passing the limit was not always enough
EWS-Fli block – blocks EWS/Fli oncoprotein-driven transcription; A673 NR0B1-luciferase reporter, viability-normalised; inhibition, % at 12.6 µM; actives 0.67% (n = 350,000);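 active means mean inhibition of at least 50% after viability correction, with every replicate also passing that limit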;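 further: firefly luciferase signal divided by Alamar Blue viability fluorescence both relative to DMSO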
Starred values were filed as active, the others as inactive; nt = no result; [ ] = another dose, or the depositor's remark. Sampled rows, rich in hits. Any-hit rate of the full collection: about 1.3%.

SMILES	miR-122 sensor	UUG fidelity	CFTR F508del cor	LGR2 inh	PglD DTNB	EWS-Fli block
CCC1C2Cn3c(nc4ccccc43)C1N(C)O2 (configuration not stated)	-3	-21	-3	19	-2	-3
CCCCN=C[C@]12CCC(O)CC1(O)CCC1[C@@H]2CC[C@]2(C)[C@H](C3C=CC(=O)O3)CCC12O (some centres not stated)	nt	-6	0	85*	-3	73*
C[C@@H]1O[C@@H](O[C@H]2C[C@@H](O)[C@]3(CO)[C@H]4[C@H](O)C[C@]5(C)[C@@H](C6=CC(=O)OC6)CC[C@]5(O)[C@@H]4CC[C@]3(O)C2)[C@H](O)[C@H](O)[C@H]1O	-18	-25	nt	nt	2	nt
CC12CCC3C(CCC4(O)CC(O)CCC34C=O)C1(O)CCC2C1=CC(=O)OC1 (configuration not stated)	96*	nt	-2	84*	nt	52*
CC1OC(OC2C(O)CC(OC3C(O)CC(OC4CCC5(C)C(CCC6C5CCC5(C)C(C7=CC(=O)OC7)C(O)CC65O)C4)OC3C)OC2C)CC(O)C1O (configuration not stated)	31	nt	-5	87*	nt	46
CC12CC[C@H]3[C@@H](CCC4(O)C[C@H](O)CCC34/C=N/NC(=O)c3ccccc3Cl)C1(O)CCC2C1=CC(=O)OC1 (some centres not stated)	nt	nt	2	21	nt	6
C[C@H]1O[C@@H](OC2CC[C@]3(C=O)[C@H]4CC[C@]5(C)[C@@H](C6=CC(=O)OC6)CC[C@]5(O)[C@@H]4CC[C@]3(O)C2)CC2OC(C)(C)OC21 (some centres not stated)	nt	nt	8.6*	81*	nt	71*
Cc1ccc(NC(=O)c2ncn(CCCNCCN3CCOCC3)n2)cc1C	0	-17	2	5	-3	-2
NCCc1ccc(OCc2ccccc2)c(OCc2ccccc2)c1	0	4	5	88*	3	41
C[n+]1c(-c2ccccc2)c2cc(N)ccc2c2ccc(N)cc21	-7	-36	4	79*	2	11
Cc1ccsc1C(=O)C1CCCN(Cc2cnn(C(C)C)c2)C1 (configuration not stated)	-13	-27	1	-16	-5	6
CCOC(=O)C(c1c(O)c2ccccc2oc1=O)c1c(O)c2ccccc2oc1=O	6	-17	-1	-12	-1	-8
COC(=O)[C@]12OC[C@]34C([C@@H](O)[C@@H]1O)[C@]1(C)CC(=O)C(O)=C(C)[C@@H]1C[C@H]3OC(=O)[C@H](O)[C@@H]24 (some centres not stated)	nt	-7	4	93*	0	-20
CN(C)C(=O)Oc1ccc(OCc2nc3ccccc3[nH]2)cc1	nt	nt	-3	53*	nt	40
CN(C)C(=O)Oc1ccc(OC(=O)N(C)C)cc1	nt	-12	nt	6	1	nt

Structural class: the entries above containing a carbonyl joined to an NH by a bond outside any ring (2)
SMILES	miR-122 sensor	UUG fidelity	CFTR F508del cor	LGR2 inh	PglD DTNB	EWS-Fli block
CC12CC[C@H]3[C@@H](CCC4(O)C[C@H](O)CCC34/C=N/NC(=O)c3ccccc3Cl)C1(O)CCC2C1=CC(=O)OC1 (some centres not stated)	nt	nt	2	21	nt	6
Cc1ccc(NC(=O)c2ncn(CCCNCCN3CCOCC3)n2)cc1C	0	-17	2	5	-3	-2

Just PglD DTNB and EWS-Fli block, for 4 of the compounds above:
| mol | PglD DTNB | EWS-Fli block |
| --- | --- | --- |
| CCC1C2Cn3c(nc4ccccc43)C1N(C)O2 (configuration not stated) | -2 | -3 |
| CCCCN=C[C@]12CCC(O)CC1(O)CCC1[C@@H]2CC[C@]2(C)[C@H](C3C=CC(=O)O3)CCC12O (some centres not stated) | -3 | 73* |
| C[C@@H]1O[C@@H](O[C@H]2C[C@@H](O)[C@]3(CO)[C@H]4[C@H](O)C[C@]5(C)[C@@H](C6=CC(=O)OC6)CC[C@]5(O)[C@@H]4CC[C@]3(O)C2)[C@H](O)[C@H](O)[C@H]1O | 2 | nt |
| CC12CCC3C(CCC4(O)CC(O)CCC34C=O)C1(O)CCC2C1=CC(=O)OC1 (configuration not stated) | nt | 52* |

(cont.)
SMILES	miR-122 sensor	UUG fidelity	CFTR F508del cor	LGR2 inh	PglD DTNB	EWS-Fli block
O=C1c2cccc(N3CCNCC3)c2C2CCCCN12 (configuration not stated)	-1	2	-2	-3	2	8
O=C(O)c1nn(Cc2ccc(Cl)cc2)c2ccccc12	nt	-17	-1	-5	2	-2
O=C(O)c1nn(Cc2ccc(Cl)cc2Cl)c2ccccc12	-7	-7	-1	63*	5	-2
COc1ccc2oc3c(c2c1)NC(=O)CN=C3c1ccccc1	nt	nt	2	42	nt	-6
CC(C)C[C@@H]1COc2cccc(N3CCN(C)CC3)c2S(=O)(=O)N1	nt	nt	12*	-16	nt	-2
CC(C)C[C@H]1COc2cccc(N3CCN(C)CC3)c2S(=O)(=O)N1	nt	nt	2	-2	nt	5
CC(C)C(=O)c1cn(Cc2ccc(C#N)cc2)c2ccccc12	2	-6	nt	nt	1	nt
CCCCCC[N+](=O)[O-]	3	-12	2	-1	5	-1
CCCCCCCCCCCCCCCC[N+](C)(C)C	-5	-35	-1	38	-5	57*
COc1ccc(CCNCc2ccc(Br)cc2)cc1OC	-5	1	5	16	-6	3
Nc1ccc2ccc3cccc[n+]3c2c1	nt	-27	15*	11	-15	5
O=C(Cc1ccccn1)N1CCCCN2[C@H](CO)[C@H](c3ccc(-c4ccccc4F)cc3)[C@H]2C1	8[16.7 µM]	-17	-1	-3	-2	7
C[C@H]1CN([C@@H](C)CO)C(=O)CCCn2cc(nn2)CO[C@@H]1CN(C)C(=O)Oc1cccc2ccccc12	-3[16.7 µM]	56	3	11	2	3
CCOP(=O)(C#Cc1ccccc1)C(O)c1ccc(Br)cc1 (configuration not stated)	nt	nt	10*	-20	nt	-2
CC(=O)N1N=C2C3CCN(CC3)C2C1c1ccccc1 (configuration not stated)	-1	-17	nt	-4	0	nt
Cn1c(N)c(C(=O)COC(=O)Cc2ccccc2)c(=O)n(C)c1=O	-2	-1	-4	10	-1	8
COc1ccc(-c2cc(=Nc3cccc(C(=O)O)c3)c3cc(C)ccc3o2)cc1	-2	nt	1	55*	nt	14
CCOC(=O)C(O)(c1ccc(NC(=O)NC)cc1)C(F)(F)F (configuration not stated)	-8	-15	1	nt	7	10
O=c1[nH]c(O)c(N=Nc2ccc3c(c2)OCCO3)c(=O)[nH]1	nt	nt	1	67*	nt	29
O=c1[nH]c(=S)[nH]c(O)c1N=Nc1ccc2c(c1)OCCO2	-30	-15	0	21	4	-14
C[C@H]1CCC/C=C/[C@@H]2C[C@H](O)C[C@H]2[C@@H](O)/C=C/C(=O)O1	-12	nt	-26	28	nt	73*
NCC(O)c1cc(O)c(O)cc1F (configuration not stated)	3	-5	-2	1	4	-23
COC(=O)C1=C(c2ccccc2OCc2ccccc2)C[C@@H]2CC[C@H]1N2C(=O)NCCc1ccc(F)cc1	nt	-2	2	49	3	12
C=C1C(=O)O[C@@H]2C[C@@H](C)[C@H]3C=CC(=O)[C@]3(O)C[C@@H]12	8	-3	-9	-1	-4	12
C=C1C(=O)OC2CC3(C)OC3CCC(C)=CC(OC(C)=O)C12 (configuration not stated)	-1	nt	-1	40*	nt	-1
C[C@H]1C[C@@H](C)C(=O)[C@@H]([C@H](O)CC2CC(=O)NC(=O)C2)C1	-20	-3	-2	95*	0	39
CC=Cc1ccc2n(c1=O)C[C@H]1[C@H](CO)[C@@H](C(=O)OC)[C@@H]2N1S(=O)(=O)c1cccc(C)c1 (mixture of isomers)	nt	nt	nt	12	-2	-8
C=CCc1cc(OC)c2c(c1)OCO2	-17	-20	-3	12	-3	-5

Screening data from PubChem BioAssay.
